Amino acid sequences for entries named in this document (tags omitted).
ATP-dependent Clp protease proteolytic subunit (Bacillus subtilis (strain 168)), P80244, UniProt P80244, whole entry, looked up: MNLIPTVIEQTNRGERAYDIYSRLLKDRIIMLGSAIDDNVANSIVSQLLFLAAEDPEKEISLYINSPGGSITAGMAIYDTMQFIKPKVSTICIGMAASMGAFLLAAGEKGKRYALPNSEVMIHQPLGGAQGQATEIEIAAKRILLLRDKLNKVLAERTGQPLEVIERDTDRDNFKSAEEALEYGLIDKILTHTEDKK

# Compound activity deposited in PubChem BioAssay by National Center for Advancing Translational Sciences (NCATS).
# ClpP mod: qHTS Assay for Activators of ClpP; ATP-dependent Clp protease proteolytic subunit (Bacillus subtilis (strain 168)), P80244; purified B. subtilis ClpP, FRET peptide cleavage, 20 min; Potency, µM (doses to about 57.5 µM), inactives show top-dose activity change, negative = active; 1.9% of 340,000 active; active means well fitted falling curve with a large enough effect; inconclusive means small, poorly fitted or top-dose-only effect; inactive means no such curve, though single readings can be large or run the other way; further: potency means the concentration at half of the fitted maximal effect; the source files actives as falling curves though it sought activators and does not explain the sign; nearly all actives have a fitted effect of over 65% in size
#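 ClpP 10 microg/mL final, pH 8 Tris/KCl buffer with BSA, glycerol, Tween-20; compound pinned in; FRET-FV substrate; RT 20 min; Ex320/Em430; ΔFRET vs ADEP 5.8 microM, DMSO, no enzyme.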
# Anesthetic bind: candidate novel general anesthetic via apoferritin binding; P02791; apoferritin/1-aminoanthracene competitive binding, fluorescence; Potency, µM (highest dose often 77.5 µM), for the others: at the top dose activity change, negative = displacement, usual class: inhibitors; 0.074% of 350,000 active; AID 485281; further: potency means the concentration at half of the fitted maximal effect; on the % scale 0 is the no-effect control and ±100 the full control effect; nearly all actives have a fitted effect of over 20% in size
#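 Horse-spleen apoferritin (10 uM) was mixed with 50% saturated 1-aminoanthracene in PBS, exposed to compounds for 10 min at room temperature, and read for fluorescence (ex 380 nm, em 535 nm). Competitive displacement was fitted with a four-parameter Hill equation.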
# rTrxR1 inhibitor: blocks rat thioredoxin reductase 1 | O89049 | recombinant rTrxR1, NADPH fluorescence consumption, selenite substrate | Potency, µM (highest dose often 114 µM), for inactives: top-dose activity change, negative = inhibition, hits mostly inhibitors | 1% of 390,000 active | AID 588453; further: potency means the concentration at half of the fitted maximal effect; on the % scale 0 is the no-effect control and ±100 the full control effect; nearly all actives have a fitted effect of over 65% in size
#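 Rat TrxR1 (90 nM in the dispensed reagent) was pre-reduced with 400 uM NADPH for 5 min at room temperature, then incubated with compound for 15 min. After 400 uM selenite was added, NADPH fluorescence (Ex 340/Em 450 nm) was followed for 8 min.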
# TrxR1 substrate: substrates of rat thioredoxin reductase 1. O89049. purified TrxR1 substrate turnover, NADPH consumption readout. Potency, µM (doses to about 114 µM), for inactives: at the top dose activity change, negative = substrate turnover. 0.01% of 390,000 active. AID 588456; further: potency means the concentration at half of the fitted maximal effect; on the % scale 0 is the no-effect control and ±100 the full control effect; nearly all actives have a fitted effect of over 50% in size
#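 Rat TrxR1, dispensed at 90 nM, was prereduced with 400 uM NADPH (final) for 5 min at ~22 deg C, then incubated with compound 15 min before 400 uM selenite. A first-read NADPH fluorescence drop versus no-compound background flagged substrates.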
# miR-21 reporter: miR-21 reporter, rising signal | AID 2288 | HeLa miR-21 FLuc reporter, luciferase, 48 h | 340,000 tested, under 10 active | Potency, µM (doses to about 38.3 µM), for inactives: at the top dose reporter change, positive = more light; active = well fitted rising curve with a large enough effect; inconclusive = small, poorly fitted or top-dose-only effect; inactive = no such curve, though single readings can be large or run the other way;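 note: % of control where 0% means no effect; miR-21 action dims this reporter so a rising signal means less miR-21 action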
#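 HeLa cells endogenously expressing miR-21, stably carrying CMV-driven firefly luciferase with a downstream miR-21 binding site, 2000 cells/well. Titrations up to approximately 40 uM, 48 hours; luciferase luminescence read.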
# An asterisk follows results filed as active; ? = inconclusive; . = no result; [ ] = remark or other dose. A selection: hits, their analogues and other compounds. The true share with any hit is near 2.5%. Unless noted, the call rests on the fitted dose curve; in most records, active means well fitted curve in the direction sought with a large enough effect; inconclusive means small, poorly fitted or top-dose-only effect, or another doubt; inactive means no such curve, though single readings can be large; an effect the other way counts as inactive or inconclusive.
SMILES,ClpP mod,Anesthetic bind,rTrxR1 inhibitor,TrxR1 substrate,miR-21 reporter
CC(C)c1ccc(N2CCN(C(=O)c3ccccc3NC(=O)/C=C\C(=O)O)CC2)cc1,-2.5%,?,10.9%[57.1 µM],2.7%[57.1 µM],-0.8%
Cc1ccc(NC(=O)CSCC(=O)Nc2nnc(C)s2)cc1,28.2µM*,.,1.4%,-9.9%,.
O=C1C=CC(=O)N1Cc1ccccc1,-4.6%,-6.9%,0.398µM*,2.8%,?
CC(C)(C)n1ncc2c(=O)n(Cc3ccc(C#N)cc3F)cnc21,.,.,12.7%,-1.0%,.
COc1ccc(-c2nc(-c3ccccc3)[nH]c(=O)c2C#N)cc1,-8.2%,-4.7%,24.8%,8.0%,-3.9%
COc1ccc(-c2cc(-c3ccco3)[nH]c(=O)c2C#N)cc1OC,4.2%,-12.3%,15.8µM*,45.7%,0.8%
O=C(NNC(=O)c1cc2ccccc2cc1O)Nc1ccc(Br)cc1,28.2µM*,-23.1%,22.1%,21.7%,-9.2%
COc1ccc(C2(C(=O)Nc3nncs3)CCCC2)cc1,1.7%,-14.1%,3.9%,2.6%,0.0%
COc1ccc(NC(=O)C2(c3ccc(NC(=O)c4ccc(OC)cc4)cc3)CCCC2)cc1,28.2µM*,4.6%,-9.6%,35.7%,-4.4%
COc1ccc(CCNC(=O)c2cc(-c3ccc(C)c(C)c3)nc3ccccc23)cc1OC,6.4%,?,-3.1%[57.1 µM],-1.3%[57.1 µM],8.5%
CCCCNC(=O)c1ccc2c(c1)NC(=O)C(CS(=O)(=O)Cc1cccc(C)c1)N2 (configuration not stated),31.6µM*,-12.4%,8.7%,10.4%,-0.5%
COCCNC(=O)c1ccc2c(c1)NC(=O)C(CS(=O)(=O)Cc1ccc(F)cc1Cl)N2 (configuration not stated),15.8µM*,3.0%,8.7%[57.1 µM],12.1%[57.1 µM],-3.1%
COc1ccc2c(Sc3ccccc3)c(C(=O)NCCc3ccc(Cl)cc3)[nH]c2c1,-0.3%,3.5%,7.8%,1.4%,19.6%
Cc1ccc(NC(=O)c2c(NC(=O)Cc3ccccc3)sc3c2CCC3)cc1,-2.9%,91.0%,-25.9%,21.1%,-3.1%
Cc1ccc(NC(=O)c2c(NC(=O)Cc3ccccc3)sc3c2CCCC3)cc1,22.4µM*,-6.5%,22.1%,12.7%,-5.7%
O=C(Nc1sc2c(c1C(=O)Nc1ccccc1)CCC2)c1ccc(Br)cc1,-16.2%,-4.4%,56.2µM*,2.7%,-7.2%
COc1ccc(CC(=O)Nc2sc3c(c2C(=O)Nc2ccc(C)cc2)CCCCC3)cc1,-2.9%,-6.1%,-22.6%,1.0%,-25.9%
COc1ccc(NC(=O)c2c(NC(=O)Cc3ccccc3)sc3c2CCCC3)cc1,28.2µM*,-9.4%,18.7%,5.5%,-6.5%
Cc1ccc(CCNC(=O)c2cnc3c(C)cccn3c2=O)cc1,4.8%,-1.4%,-1.2%[57.1 µM],21.2%[57.1 µM],-13.4%
CC(C)(C)OC(=O)N1CCC(c2c(C(=O)N3CCN(c4ccccn4)CC3)cnn2-c2cccc(F)c2)CC1,-12.6%,-7.1%,14.2%,5.6%,-3.3%
O=C1CC(c2nc3ccccc3n2CCCCOc2ccccc2)CN1c1ccccc1Cl (configuration not stated),-9.2%,191.5%,24.3%,3.1%,?
CC12CCC(=O)N1c1c(sc3nc(N4CCOCC4)c4c(c13)CCCC4)C(=O)N2 (configuration not stated),25.1µM*,45.6%,0.8%,136.1%,-2.6%
COC(=O)c1ccc(-c2sc3nc(N4CCOCC4)c4c(c3c2N)CCCC4)o1,-18.3%,-10.2%,3.3%[57.1 µM],15.5%[57.1 µM],-10.8%
CN(Cc1ccccc1)C(=O)C1CCN(S(=O)(=O)Cc2ccccc2)CC1,-0.9%,161.6%,17.6%,6.6%,5.2%
C=CCNC(=O)c1c2c(nc3ccccc13)-c1ccccc1CC2,31.6µM*,-17.0%,10.8%,34.3%,5.6%
CC(C)CNC(=O)c1c2c(nc3ccccc13)-c1ccccc1CC2,28.2µM*,-16.7%,24.3%[57.1 µM],14.4%[57.1 µM],7.2%
CC(C)CN(C)c1ccc(/C=C2\C=Cc3ccccc32)cc1,-0.1%,.,44.7µM*,-3.4%,.
COc1ccccc1/C=C1\C=Cc2ccccc21,-6.4%,.,22.4µM*,-12.9%,.
CN(C)/C=C1\C=Cc2ccccc21,-4.9%,.,2.24µM*,-5.1%,.
CN(C)c1ccc(/C=C2\C=Cc3ccccc32)cc1,3.0%,.,-15.3%,-4.8%,.

# Full records, quoted from the list. Screens in order: ClpP mod | Anesthetic bind | rTrxR1 inhibitor | TrxR1 substrate | miR-21 reporter
# Entry for Cc1ccc(NC(=O)c2c(NC(=O)Cc3ccccc3)sc3c2CCCC3)cc1 : 22.4µM* | -6.5% | 22.1% | 12.7% | -5.7%
# Entry for COc1ccc(CCNC(=O)c2cc(-c3ccc(C)c(C)c3)nc3ccccc23)cc1OC : 6.4% | ? | -3.1%[57.1 µM] | -1.3%[57.1 µM] | 8.5%

# Ordered by value in TrxR1 substrate (highest first): 3 of the compounds above.
SMILES,ClpP mod,Anesthetic bind,rTrxR1 inhibitor,TrxR1 substrate,miR-21 reporter
COc1ccc(NC(=O)c2c(NC(=O)Cc3ccccc3)sc3c2CCCC3)cc1,28.2µM*,-9.4%,18.7%,5.5%,-6.5%
COc1ccc2c(Sc3ccccc3)c(C(=O)NCCc3ccc(Cl)cc3)[nH]c2c1,-0.3%,3.5%,7.8%,1.4%,19.6%
COc1ccccc1/C=C1\C=Cc2ccccc21,-6.4%,.,22.4µM*,-12.9%,.
